Substitutions are numbered along the chain they refer to. Numbers in names are those of the source. Like-named read-outs stand apart in the source and are kept apart here.
B1: estrogen sulfotransferase (EST) (Mus musculus) (protein)
chain: METSMPEYYEVFGEFRGVLMDKRFTKYWEDVEMFLARPDDLVIATYPKSGTTWISEVVYMIYKEGDVEKCKEDAIFNRIPYLECRNEDLINGIKQLKEKESPRIVKTHLPPKLLPASFWEKNCKMIYLCRNAKDVAVSYYYFLLMITSYPNPKSFSEFVEKFMQGQVPYGSWYDHVKAWWEKSKNSRVLFMFYEDMKEDIRREVVKLIEFLERKPSAELVDRIIQHTSFQEMKNNPSTNYTMMPEEMMNQKVSPFMRKGIIGDWKNHFPEALRERFDEHYKQQMKDCTVKFRMEL
B2: trehalose sulfotransferase (Stf0) (Mycolicibacterium smegmatis MC2 155; R143C/W154N) (protein)
chain: MSDHPTAYLVLASQRSGSTLLVESLRATGVAGEPQEFFQYLPNTSMSPQPREWFADVEDQSILRLLDPLIEGKPDLAPATIWRDYIQTVGRTPNGVWGGKLMWNQTPLLVQRAKDLPDRSGSGLLSAIRDVVGSDPVLIHIHCPDVVSQAVSFNRAVQTRVWRGRPDPVRDARAEYHAGAIAHVITMLRAQEEGWRAWFTEENVEPIDVDYPYLWRNLTEVVGTVLEALGQDPRLAPKPVLERQADQRSDEWVERYRRDAQRDGLPL
B3: trehalose sulfotransferase (Stf0) (Mycolicibacterium smegmatis MC2 155) (protein)
chain: B2 chain with C143R, N154W

Substrate: Nc1ncnc2c1ncn2[C@@H]1O[C@H](COP(=O)(O)OS(=O)(=O)O)[C@@H](O)[C@H]1O
Experiment: purified protein

Protein	Km (pH 7.5, 35.0 °C)	kcat/Km (pH 7.5, 35.0 °C)	Km
B1	2910 ± 520 µM	2.44 M⁻¹ s⁻¹	–
B2	–	–	1040 ± 170 µM
B3	1560 ± 260 µM	3.78 M⁻¹ s⁻¹	–

From article PMC10638397, “Engineering sulfonate group donor regeneration systems to boost biosynthesis of sulfated compounds” (Nature Communications, 2023)
